Data published in ChEMBL document CHEMBL1131041, “Synthesis, opioid receptor binding, and bioassay of naltrindole analogues substituted in the indolic benzene moiety” (J Med Chem, 1998).

By UniProt entry, the sequences of proteins in these tests, tags left out.
UniProt P33535, whole entry: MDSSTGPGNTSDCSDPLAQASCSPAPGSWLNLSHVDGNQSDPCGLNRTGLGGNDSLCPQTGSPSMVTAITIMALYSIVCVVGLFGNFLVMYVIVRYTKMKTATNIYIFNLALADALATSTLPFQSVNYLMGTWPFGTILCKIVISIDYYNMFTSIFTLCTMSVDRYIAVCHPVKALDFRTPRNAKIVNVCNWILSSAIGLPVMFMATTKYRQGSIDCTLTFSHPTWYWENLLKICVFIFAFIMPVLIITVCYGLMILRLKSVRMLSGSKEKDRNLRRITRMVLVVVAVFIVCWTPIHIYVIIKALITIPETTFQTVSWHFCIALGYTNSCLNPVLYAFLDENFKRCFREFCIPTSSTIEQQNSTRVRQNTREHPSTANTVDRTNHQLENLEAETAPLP

Biological target: Mu-type opioid receptor (Rattus norvegicus, UniProt P33535)
Test: Displacement of [3H]DAMGO from Opioid receptor mu 1 of rat brain membranes
Format: cell membranes, Membrane
Summary of the method: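 Rat brain membranes labelled with [3H]DAMGO. Incubation 4 h at 25 °C in 50 mM Tris-HCl pH 7.4 with protease inhibitor cocktail. Nonspecific binding defined with 20 μM levallorphan. 8–10 test concentrations, run twice; IC50 and slope factor derived.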

Compound: Oc1ccc2c3c1O[C@H]1c4[nH]c5ccccc5c4C[C@@]4(O)[C@@H](C2)N(CC2CC2)CC[C@]314 [NALTRINDOLE]
- Ki: 0.05 µM
